{
  "source": "patent US10392346B2",
  "about": "“Kinase inhibitors” (Topivert Pharma Limited, priority 2014, dated 2019)",
  "test_system": "non-mutant kinases",
  "experiment": "KinomeScan selectivity scores",
  "format": "binding",
  "conditions": "50 nM",
  "from_the_text": "These assays may be conducted by DiscoverX (formerly Ambit; San Diego, Calif.).",
  "data": [
    {"smiles": "COc1cc(Nc2cc(Oc3ccc(NC(=O)Nc4cc(C(C)(C)C)cc(NS(C)(=O)=O)c4OC)c4ccccc34)ccn2)ccc1P(C)(=O)O", "note": "[Example 44, (4-((4-((4-(3-(5-(tert-Butyl)-2-methoxy-3-(methylsulfonamido)phenyl)ureido)naphthalen-1-yl)oxy)pyridin-2-yl)amino)-2-methoxyphenyl)(methyl)phosphinic acid]", "values": [
      {"measurement": "KinomeScan Selectivity Score S(1)", "setting": "kinases with % Ctrl <1 / kinases tested", "value": 0.002},
      {"measurement": "KinomeScan Selectivity Score S(10)", "setting": "kinases with % Ctrl <10 / kinases tested", "value": 0.074}
    ]}
  ]
}
